The values that follow are results of earlier work, collected in patent US5922681A, “Endothelin antagonists” (Warner-Lambert Company, priority 1992, dated 1999).

Sequences of proteins named here, by UniProt entry; tags and fusion partners are left off. Residues count along the entry.
UniProt Q29010, 21-427: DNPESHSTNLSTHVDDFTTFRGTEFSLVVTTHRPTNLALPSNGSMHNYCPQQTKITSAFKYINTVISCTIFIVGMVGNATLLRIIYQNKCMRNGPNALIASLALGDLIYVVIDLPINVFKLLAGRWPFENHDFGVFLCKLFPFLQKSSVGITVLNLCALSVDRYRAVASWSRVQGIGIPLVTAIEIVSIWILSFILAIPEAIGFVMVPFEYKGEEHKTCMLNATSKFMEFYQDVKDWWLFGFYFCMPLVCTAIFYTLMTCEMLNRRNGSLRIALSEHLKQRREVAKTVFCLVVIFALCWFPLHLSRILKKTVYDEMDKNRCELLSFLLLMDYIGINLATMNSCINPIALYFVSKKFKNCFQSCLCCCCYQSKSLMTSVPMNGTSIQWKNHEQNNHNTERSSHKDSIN

The data set concerns the target T1, porcine aortic microsomes (Sus scrofa, UniProt Q29010).
T1 construct: ET-1 to porcine and human aortic microsomes; host or cells: porcine aortic microsomes
The conditions noted are these: read-out: IC50, inhibition of specific binding of [125I]ET-1; cited from earlier work.

As to FR 139317, the IC50 is 530 pM.

Usually IC50 stands for the point on the concentration scale where inhibition reaches its midpoint.
